# Tested on: MDCKII-MDR1 cells
# Settings: apical-to-basal, 2 h
substance,measurement,value
"fluorescein isothiocyanate–dextran [FD4, reference compound]",Papp AP,0.47 ± 0.15 ×10^−5cm/s

# Source: publication PMC10610214 (Pharmaceuticals, 2023)
